# In US11542261B2, “Substituted Imidazo[1,2-a]-pyridines as IRAK 1/4 and FLT3 inhibitors” (CHILDREN'S HOSPITAL MEDICAL CENTER, priority 2016, dated 2023):
# System: MLL-AF9 FLT3-ITD cells
# Conditions: read-out: IC50 of Venetoclax in the presence of 0.2 nM 1481
smiles,measurement,value
"CC1(C)CCC(CN2CCN(c3ccc(C(=O)NS(=O)(=O)c4ccc(NCC5CCOCC5)c([N+](=O)[O-])c4)c(Oc4cnc5[nH]ccc5c4)c3)CC2)=C(c2ccc(Cl)cc2)C1 [Venetoclax, venetoclax]",IC50,63.8 nM
